Earlier results as cited in US10500232B2, “Small molecule cellular reprogramming to generate neuronal cells” (The J. David Gladstone Institutes, a testamentary trust …, priority 2013, dated 2019).
pIC50: −log10 of the molar value.

Protein sequences, listed by entry. Tags and fused reporters are not part of them.
UniProt Q13547, whole entry, species assumed: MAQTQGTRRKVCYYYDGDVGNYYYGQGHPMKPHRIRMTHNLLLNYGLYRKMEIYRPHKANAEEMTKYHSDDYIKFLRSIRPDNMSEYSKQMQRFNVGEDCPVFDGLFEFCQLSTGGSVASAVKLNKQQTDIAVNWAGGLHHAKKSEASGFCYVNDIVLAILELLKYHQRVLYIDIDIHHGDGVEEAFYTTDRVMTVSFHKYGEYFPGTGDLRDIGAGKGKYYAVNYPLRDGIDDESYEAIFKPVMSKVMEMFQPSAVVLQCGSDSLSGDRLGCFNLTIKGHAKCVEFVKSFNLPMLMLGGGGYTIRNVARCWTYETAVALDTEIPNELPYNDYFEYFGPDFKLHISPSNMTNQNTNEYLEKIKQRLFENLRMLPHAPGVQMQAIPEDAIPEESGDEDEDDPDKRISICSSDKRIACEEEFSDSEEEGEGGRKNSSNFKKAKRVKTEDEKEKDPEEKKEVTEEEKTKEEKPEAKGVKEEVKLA

Target: HDAC1 (Homo sapiens, UniProt Q13547)
Settings: cited from earlier work

4,5:8,9-Dianhydro-1,2,6,7,11-pentadeoxy-D-threo-D-ido-undeca-1,6-dienitol [Depudecin]
pIC50: ~5.33
